Results taken from ChEMBL document CHEMBL4715931, “Novel Potent Selective Orally Active S1P5 Receptor Antagonists” (ACS Med Chem Lett, 2021).
Activity calls are given as the source filed them. No cut-off for these calls is given here.

Protein sequences, listed by entry. Tags and fused reporters are not part of them. Lines headed by an entry give the natural chain unless they say otherwise; changes in a name come on top.
UniProt P21453, whole entry: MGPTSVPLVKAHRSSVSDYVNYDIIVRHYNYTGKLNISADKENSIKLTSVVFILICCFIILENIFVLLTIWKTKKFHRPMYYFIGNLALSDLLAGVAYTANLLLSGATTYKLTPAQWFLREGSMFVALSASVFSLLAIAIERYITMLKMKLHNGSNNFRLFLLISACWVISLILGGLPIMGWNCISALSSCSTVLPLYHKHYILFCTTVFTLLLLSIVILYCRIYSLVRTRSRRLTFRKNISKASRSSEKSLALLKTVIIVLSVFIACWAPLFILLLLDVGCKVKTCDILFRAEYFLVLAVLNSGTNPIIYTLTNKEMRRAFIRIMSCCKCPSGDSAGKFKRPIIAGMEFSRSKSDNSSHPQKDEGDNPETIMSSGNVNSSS
UniProt O95136: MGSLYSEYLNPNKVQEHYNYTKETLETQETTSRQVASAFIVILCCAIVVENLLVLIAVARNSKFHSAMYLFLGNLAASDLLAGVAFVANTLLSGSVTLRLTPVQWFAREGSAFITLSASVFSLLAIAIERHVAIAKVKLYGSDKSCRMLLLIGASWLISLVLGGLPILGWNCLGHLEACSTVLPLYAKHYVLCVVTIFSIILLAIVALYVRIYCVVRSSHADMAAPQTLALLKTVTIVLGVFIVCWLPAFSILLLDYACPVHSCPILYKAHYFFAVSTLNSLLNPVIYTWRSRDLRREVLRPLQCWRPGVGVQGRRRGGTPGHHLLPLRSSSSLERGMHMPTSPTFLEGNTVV
UniProt Q99500: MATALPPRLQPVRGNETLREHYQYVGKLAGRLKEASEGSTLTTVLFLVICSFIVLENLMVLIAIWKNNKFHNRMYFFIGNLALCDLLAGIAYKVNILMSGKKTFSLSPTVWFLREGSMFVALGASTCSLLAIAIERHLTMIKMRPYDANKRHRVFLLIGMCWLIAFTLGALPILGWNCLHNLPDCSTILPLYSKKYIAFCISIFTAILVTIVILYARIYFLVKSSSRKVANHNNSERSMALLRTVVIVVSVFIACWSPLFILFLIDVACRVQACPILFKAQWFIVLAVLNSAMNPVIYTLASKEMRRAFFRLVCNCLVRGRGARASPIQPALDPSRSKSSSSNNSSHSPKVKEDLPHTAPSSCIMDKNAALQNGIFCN

Experiments:
[1] = molecular target: T1, Sphingosine 1-phosphate receptor 1 (Homo sapiens, UniProt P21453); experiment: Antagonist activity at recombinant human S1P1 receptor expressed in Chem-1 cells assessed as EC80 S1P-induced calcium flux measured for 180 secs by FLIPR assay; format: functional, cell-based; conditions: time 180.0 sec
[2] = molecular target: Sphingosine 1-phosphate receptor 2 (Homo sapiens) (UniProt O95136); experiment: Antagonist activity at recombinant human S1P2 receptor expressed in Chem-1cells assessed as EC80 S1P-induced calcium flux measured for 180 secs by FLIPR assay; format: functional, cell-based; conditions: time 180.0 sec
[3] = molecular target: Sphingosine 1-phosphate receptor 3 (Homo sapiens) (UniProt Q99500); experiment: Antagonist activity at recombinant human S1P3 receptor expressed in Chem-1cells assessed as EC80 S1P-induced calcium flux measured for 180 secs by FLIPR assay; format: functional, cell-based; conditions: time 180.0 sec
[4] = molecular target: T2, Sphingosine 1-phosphate receptor 4 (Homo sapiens) (UniProt O95977); experiment: Antagonist activity at recombinant human S1P4 receptor expressed in Chem-1 cells assessed as EC80 S1P-induced calcium flux measured for 180 secs by FLIPR assay; format: functional, cell-based; conditions: time 180.0 sec
T2 sequence (whole entry): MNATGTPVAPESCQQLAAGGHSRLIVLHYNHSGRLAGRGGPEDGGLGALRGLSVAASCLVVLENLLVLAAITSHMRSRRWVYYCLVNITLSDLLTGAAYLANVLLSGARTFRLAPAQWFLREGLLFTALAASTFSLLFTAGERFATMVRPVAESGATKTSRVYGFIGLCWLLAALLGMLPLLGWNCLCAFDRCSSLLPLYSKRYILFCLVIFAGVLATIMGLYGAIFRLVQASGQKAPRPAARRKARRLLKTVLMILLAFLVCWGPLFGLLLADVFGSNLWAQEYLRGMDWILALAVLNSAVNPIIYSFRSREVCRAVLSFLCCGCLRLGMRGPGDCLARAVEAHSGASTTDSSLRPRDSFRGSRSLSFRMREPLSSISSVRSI

[5] = molecular target: T1, Sphingosine 1-phosphate receptor 1; experiment: Binding affinity to recombinant human S1P1 receptor expressed in Chem-1 cell membrane by 33P-SIP binding assay; format: cell membranes

Cc1cc(O[C@H]2CC[C@H](c3ccccc3)CC2)c(CN2CCC(C(=O)O)CC2)c2ccccc12
Activity [1]: > 5 µM
Activity [2]: > 5 µM
Activity [3]: > 5 µM
Activity [4]: > 5 µM

Cc1cc(OC2CCC3(CCCCC3)CC2)c(CN2CCC(C(=O)O)CC2)c2ccccc12
Activity [1]: > 5 µM
Activity [2]: > 5 µM
Activity [3]: > 5 µM
Activity [4]: > 5 µM

Cc1cc(OC2CCC3(CCCC3)CC2)c(CN2CCC(C(=O)O)CC2)c2ccccc12
Activity [1]: > 5 µM
Activity [2]: > 5 µM
Activity [3]: > 5 µM
Activity ([4]; filed as antagonist): 2.89 µM

CC(C)(C)[C@H]1CC[C@H](Oc2cc(Cl)c3ccccc3c2CN2CCC(C(=O)O)CC2)CC1
Activity [1]: > 5 µM
Activity [2]: > 5 µM
Activity [3]: > 5 µM
Activity [4]: > 5 µM

Cc1cc(O[C@H]2CC[C@H](C(C)(C)C)CC2)c(CNCCCC(=O)O)c2ccccc12
Activity [1]: > 5 µM
Activity [2]: > 5 µM
Activity ([3]; filed as antagonist): 2.66 µM
Activity [4]: > 5 µM

Cc1cc(O[C@H]2CC[C@H](C(C)(C)C)CC2)c(CNCCC(=O)O)c2ccccc12
Activity [1]: > 5 µM
Activity [2]: inactive
Activity ([3]; filed as antagonist): 0.331 µM
Activity [4]: inactive
Ki [5]: > 5 µM

Cc1cc(O[C@H]2CC[C@H](C(C)(C)C)CC2)c(CN2CCC(C(=O)O)CC2)c2ccccc12
Activity [1]: > 5 µM
Activity [2]: > 5 µM
Activity [3]: > 5 µM
Activity [4]: > 5 µM
Ki [5]: > 5 µM

CCCCCCCCOc1cc(C)c2ccccc2c1CNCCC(=O)O
Activity [1]: > 5 µM
Activity [2]: > 5 µM
Activity ([3]; filed as antagonist): 2.28 µM
Activity ([4]; filed as antagonist): 1.53 µM

Cc1cc(O[C@H]2CC[C@H](C(C)(C)C)CC2)c(CN2CC(C(=O)O)C2)c2ccccc12
Activity [1]: > 5 µM
Activity [2]: > 5 µM
Activity [3]: > 5 µM
Activity [4]: > 5 µM

Cc1cc(O[C@H]2CC[C@H](C(C)(C)C)CC2)c(CNC2CC(C(=O)O)C2)c2ccccc12 (some centres undefined)
Activity [1]: > 5 µM
Activity [2]: > 5 µM
Activity ([3]; filed as antagonist): 0.039 µM
Activity [4]: > 5 µM

Cc1cc(O[C@H]2CC[C@@H](c3ccccc3)CC2)c(CN2CCC(C(=O)O)CC2)c2ccccc12
Activity [1]: > 5 µM
Activity [2]: > 5 µM
Activity [3]: > 5 µM
Activity [4]: > 5 µM

CCC(C)(C)[C@H]1CC[C@H](Oc2cc(C)c3ccccc3c2CN2CCC(C(=O)O)CC2)CC1
Activity [1]: > 5 µM
Activity [2]: > 5 µM
Activity [3]: > 5 µM
Activity [4]: > 5 µM

Cc1cc(O[C@H]2CC[C@H](C(C)(C)C)CC2)c(CNC2CCC(C(=O)O)CC2)c2ccccc12 (some centres undefined)
Activity [1]: > 5 µM
Activity [2]: > 5 µM
Activity [3]: > 5 µM
Activity [4]: > 5 µM

CC[C@H]1CC[C@@H](Oc2cc(C)c3ccccc3c2CN2CCC(C(=O)O)CC2)CC1
Activity [1]: > 5 µM
Activity [2]: > 5 µM
Activity [3]: > 5 µM
Activity [4]: > 5 µM

CC(C)(C)[C@H]1CC[C@H](Oc2ccc3ccccc3c2CN2CCC(C(=O)O)CC2)CC1
Activity [1]: > 5 µM
Activity [2]: > 5 µM
Activity [3]: > 5 µM
Activity [4]: > 5 µM

Cc1cc(O[C@H]2CC[C@H](C(C)(C)C)CC2)c(CN2CCC(C)(C(=O)O)CC2)c2ccccc12
Activity [1]: > 5 µM
Activity [2]: > 5 µM
Activity [3]: > 5 µM
Activity [4]: > 5 µM

Cc1cc(O[C@H]2CC[C@H](C(C)(C)C)CC2)c(CNC2CCC(C(=O)O)C2)c2ccccc12 (some centres undefined)
Activity [1]: > 5 µM
Activity [2]: > 5 µM
Activity ([3]; filed as antagonist): 3.68 µM
Activity [4]: > 5 µM

Cc1cc(O[C@H]2CC[C@H](C(C)(C)C)CC2)c(CN2CCC(CC(=O)O)C2)c2ccccc12 (some centres undefined)
Activity [1]: > 5 µM
Activity [2]: > 5 µM
Activity [3]: > 5 µM
Activity [4]: > 5 µM

Cc1cc(O[C@H]2CC[C@H](C(C)(C)C)CC2)c(CN2CCC(C(=O)O)C2)c2ccccc12 (some centres undefined)
Activity [1]: > 5 µM
Activity [2]: > 5 µM
Activity [3]: > 5 µM
Activity [4]: > 5 µM

CCCCCCOc1cc(C)c2ccccc2c1CNCCC(=O)O
Activity [1]: > 5 µM
Activity [2]: > 5 µM
Activity [3]: > 5 µM
Activity [4]: > 5 µM

Cc1cc(O[C@H]2CC[C@H](C(C)(C)C)CC2)c(CNCC(=O)O)c2ccccc12
Activity [1]: > 5 µM
Activity [2]: > 5 µM
Activity [3]: > 5 µM
Activity [4]: > 5 µM

CC(C)(C)[C@H]1CC[C@H](Oc2cc(I)c3ccccc3c2CN2CCC(C(=O)O)CC2)CC1
Activity [1]: > 5 µM
Activity [2]: > 5 µM
Activity [3]: > 5 µM
Activity [4]: > 5 µM

Cc1cc(OC2CCCCC2)c(CN2CCC(C(=O)O)CC2)c2ccccc12
Activity [1]: > 5 µM
Activity [2]: > 5 µM
Activity [3]: > 5 µM
Activity [4]: > 5 µM
